Source: PubChem BioAssay (NCI)
The list shows a part of the results, in another mix than the full data. Some structures have more than one record in an assay (separate samples or runs), and their calls can disagree. Calls of active or inactive are those of the source. Cut-off read from the data, not from the text of the source: active = growth inhibition above about 70%; inactive = the rest.

Test: NCI Yeast Anticancer Drug Screen. Data for the rad14 strain (AID 159);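 note: 0% = growth of vehicle-treated control cultures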
Conditions: S. cerevisiae rad14 strain growth inhibition, active compounds read high
Procedure: Growth inhibition of yeast strains with defined genetic alterations is measured as a screen for potential anti-cancer activity. Selected strains with alterations in DNA damage repair or cell cycle control were exposed to compounds and growth inhibition was measured relative to vehicle treated controls. The strain used in this assay is rad14

Structure (SMILES) | growth inhibition (at 1.2 µM) | growth inhibition (at 3.7 µM) | growth inhibition (at 11.0 µM) | growth inhibition (at 33.0 µM) | growth inhibition (at 100.0 µM)
NC(Cc1cnc[nH]1)C(=O)O (stereo not given) | inactive: 0% | inactive: 48% | active: 98% | active: 99% | active: 99%
O=C1OC(C(Cl)(Cl)Cl)Sc2ccccc21 (stereo not given) | inactive: -3% | inactive: 0% | inactive: 5% | inactive: 35% | active: 76%
N#Cc1cc([N+](=O)[O-])cc([N+](=O)[O-])c1N | inactive: 4% | inactive: 12% | inactive: 41% | active: 70% | active: 86%
COc1cccc(C[N+](C)(CCCl)CCCl)c1[N+](=O)[O-] | inactive: -8% | inactive: -3% | inactive: 23% | active: 76% | active: 92%
CC(C)c1nc(Nc2ccccc2)n(P(=O)(N(C)C)N(C)C)n1 | inactive: -22% | inactive: -6% | inactive: -14% | inactive: 61% | active: 95%
O=[N+]([O-])c1cc([N+](=O)[O-])c2nsnc2c1 | inactive: 29% | active: 100% | active: 100% | active: 100% | active: 99%
FC1(F)SC2C(C1(F)F)C1(Cl)C(Cl)=C(Cl)C2(Cl)C1(Cl)Cl (stereo not given) | inactive: 9% | active: 79% | active: 99% | active: 99% | active: 98%
